Results published in patent US20210290732A1, “GLP-1R and GCGR Agonists, Formulations, and Methods of Use” (Spitfire Pharma LLC, priority 2020, published 2021).

Columns and labels:
DIO JAX mice = DIO JAX mice study (blood glucose, IPGTT, body weight, body composition); format: in vivo, mouse
Description: B. In vivo assays using “DIO JAX” mice. Eighty-one (81) 18 week-old male C57BL/6J mice, fed a high fat diet (Research Diets D12492) from the age of 6 weeks, were transferred to Jackson in vivo research laboratory (Sacramento, Calif.). […] Cages were changed every two weeks. […] The animal rooms were set to have 15 air exchanges per hour. Before study initiation, all mice continued on the high fat diet (60% kcal; D12492) and were acclimated for four weeks. On the morning of Study Day −1, baseline body composition was determined for each mouse via NMR analysis. Sixty-three (63) mice were grouped into seven groups (n=9). Remaining ungrouped mice were euthanized. Subcutaneous dosing of compounds was done on alternate days. On the morning of Study Day 0, pre-dose blood glucose measurements were taken via glucometer and the mice were dosed according to Table 7 below, with dose time recorded. Blood glucose measurements were taken at 1, 2, 4, 8, 10, and 24 hours post-dose. After study day 1, pre-dose blood glucose was measured on days 4, 7, 9, 11, 13, 17, 21 and 25. Body weights and clinical observations were recorded every 2 days. Food intake in all groups was measured daily, following dosing. First food intake measurement was on Study Day −1. Group 4 was pair-fed to Group 3 and Group 7 was pair-fed to Group 6. The amount of food for Groups 4 and 7 was dictated by the average amount of food consumed in the previous 24-hour window by Groups 3 and 6, respectively. Food intake for Groups 1, 2, 3, 5 and 6 were provided ad lib and measured daily. On Study Day 27, the mice were fasted for 5 hours and a glucose tolerance test (GTT) was performed. All mice were IP dosed with a bolus of glucose (2 g/kg) and blood glucose was assessed pre-dose and 15, 30, 60, 90, and 120 minutes post-dose. All blood glucose values were entered in the GTT Blood Glucose Log.

[1] = single s.c. dose pharmacokinetics of ALT-801 or semaglutide in male C57BL6/J mice (similar test)
Procedure: A similar test was carried out using male C57BL6/J mice at The Jackson Laboratory-JAX West (Sacramento, Calif.). […] Both compounds were formulated at 0.02 mg/mL in 50 mM phosphate buffer, 0.05% Tween 80 at pH ˜8. The dosing volume was approximately 2 mL/kg. […] Each mouse was bled at two time points and the second time point was a terminal bleed. […] Non-compartmental PK analysis using WinNonlin was performed by using the mean concentrations at each sampling time point to report the maximum concentration (Cmax), the time Cmax was observed (Tmax), the area under the plasma concentration curve from time zero to the last time point with measurable concentration (AUC0-t), the plasma concentration-time curve from time zero to infinity (AUC0-(x)), the terminal elimination half-life (T1/2), and the mean residence time (MRT).

[2] = plasma protein binding by ultracentrifugation, monkey plasma; format: in vitro ADME, cynomolgus monkey; settings: pH 7.4, 15000 ng/mL, 37° C., 6 hours
Description: Such non-covalent binding to albumin is anticipated to slow down the degradation of peptide in plasma and results in decreased renal clearance. […] Pooled plasma was obtained from at least three Sprague Dawley rats, beagle dogs, and cynomolgus monkeys. Pooled human plasma was obtained from three human males (that reportedly had not taken any medication in the previous 7 days before collection). K2EDTA was used as the anticoagulant. The pH of each pool of plasma was adjusted, if needed, to approximately pH 7.4 with hydrochloric acid or sodium hydroxide. Ultracentrifugation was performed using polycarbonate ultracentrifugation tube placed in a S80 AT2 rotor at 37° C. at 357000×g for 6 hours to achieve separation of PUC (supernatant) from plasma proteins. After centrifugation, the PUC was analyzed by LC MS for the calculation of protein binding. Protein Binding was evaluated as Percent unbound=(Cu/Co)×100 and Percent bound=100-percent unbound where Co is the concentration of test article in plasma prior to ultracentrifugation (ng/mL) and Cu is the concentration of test article in plasma in the ultracentrifugate (ng/mL).

[3] = male C57BL6/J mice, 10 nmol/kg s.c.
[4] = male, C57BL6/J, mouse, in vivo, sc, 10 nmol/kg

Compound: CC[C@H](C)[C@H](NC(=O)[C@H](Cc1ccccc1)NC(=O)[C@H](CCC(=O)O)NC(=O)[C@@H]1CCCCNC(=O)CC[C@H](NC(=O)[C@H](CC(=O)O)NC(=O)[C@H](CC(C)C)NC(=O)[C@H](Cc2ccc(O)cc2)NC(=O)[C@H](CCCCN)NC(=O)[C@H](CO)NC(=O)[C@H](Cc2ccc(O)cc2)NC(=O)[C@H](CC(=O)O)NC(=O)[C@H](CO)NC(=O)[C@@H](NC(=O)[C@H](Cc2ccccc2)NC(=O)[C@@H](NC(=O)CNC(=O)[C@H](CCC(N)=O)NC(=O)C(C)(C)NC(=O)[C@@H](N)Cc2c[nH]cn2)[C@@H](C)O)[C@@H](C)O)C(=O)N[C@@H](CCCCNC(=O)[C@H]2O[C@@H](OCCCCCCCCCCCCCCCCCC(=O)O)[C@H](O)[C@@H](O)[C@@H]2O)C(=O)N[C@@H](C)C(=O)N[C@@H](C)C(=O)N1)C(=O)N[C@@H](CCC(N)=O)C(=O)N[C@@H](Cc1c[nH]c2ccccc12)C(=O)N[C@@H](CC(C)C)C(=O)N[C@@H](CC(C)C)C(=O)N[C@@H](CCC(N)=O)C(=O)N[C@H](C(N)=O)[C@@H](C)O [SEQ ID NO: 1]
- weight loss (DIO JAX mice; 12 nmol/kg dose): more than 25%
- fat loss (DIO JAX mice; FIG. 7): 51%
- lean loss (DIO JAX mice; FIG. 7): about 12%
- glucose excursion in IPGTT (2 g/kg IP glucose) (DIO JAX mice; day 27, low and high dose): blunted glucose excursion
- blood glucose levels during repeated dosing (DIO JAX mice; high dose 12 nmol/kg SC every 2 days): suppressed to the normoglycemic range from day seven (7) through the last measurement at day 26
- time post-dose at which blood glucose reached the normoglycemic range (DIO JAX mice; low and high dose (6 and 12 nmol/kg) SC): ≤ 4 h
- AUC as % of semaglutide's value [1, 3]: > 86%
- Cmax as % of semaglutide's value [1, 3]: 50%
- MRT [1, 4]: 22 h
- Tmax [1, 4]: 8 h
- fraction unbound [2]: 0.000487
